Test results published in patent US9101638B2, “Boronic acid derivatives and therapeutic uses thereof” (Rempex Pharmaceuticals, Inc., priority 2013, dated 2015).

Test system: KP1010 (SHV-12)
Experiment: Potentiation of tigemonam, strain KP1010
Details: minimum BLI concentration inhibiting growth with 4 μg/mL tigemonam

Row | Structure (SMILES) | TIG MPC4 SHV-12 KP1010
1 | O=C(Cc1cccs1)N[C@H]1Cc2cccc(C(=O)O)c2OB1O [CPD A, reference compound] | X (X = MIC of less than 1 μg/mL)
2 | O=C(COCc1ccccc1)N[C@H]1Cc2cccc(C(=O)O)c2OB1O [CPD B, reference compound] | Y (Y = MIC of 1 μg/mL to 10 μg/mL)
3 | O=C(CSC(F)(F)F)N[C@H]1Cc2cccc(C(=O)O)c2OB1O [Compound 1, (R)-2-hydroxy-3-(2-(trifluoromethylthio)acetamido)-3,4-dihydro-2H-benzo[e][1,2]oxaborinine-8-carboxylic acid] | X (X = MIC of less than 1 μg/mL)
4 | Cn1nnnc1SCC(=O)N[C@H]1Cc2cccc(C(=O)O)c2OB1O [Compound 2, (R)-2-hydroxy-3-(2-(1-methyl-1H-tetrazol-5-ylthio)acetamido)-3,4-dihydro-2H-benzo[e][1,2]oxaborinine-8-carboxylic acid] | X (X = MIC of less than 1 μg/mL)
5 | O=C(CSC(F)F)N[C@H]1Cc2cccc(C(=O)O)c2OB1O [Compound 3, (R)-3-(2-(difluoromethylthio)acetamido)-2-hydroxy-3,4-dihydro-2H-benzo[e][1,2]oxaborinine-8-carboxylic acid] | X (X = MIC of less than 1 μg/mL)
6 | O=CN[C@H]1Cc2cccc(C(=O)O)c2OB1O [Compound 4, (R)-3-formamido-2-hydroxy-3,4-dihydro-2H-benzo[e][1,2]oxaborinine-8-carboxylic acid] | X (X = MIC of less than 1 μg/mL)
7 | Nc1nnc(SCC(=O)N[C@H]2Cc3cccc(C(=O)O)c3OB2O)s1 [Compound 5, (R)-3-(2-(5-amino-1,3,4-thiadiazol-2-ylthio)acetamido)-2-hydroxy-3,4-dihydro-2H-benzo[e][1,2]oxaborinine-8-carboxylic acid] | X (X = MIC of less than 1 μg/mL)
8 | NC(=O)N[C@H]1Cc2cccc(C(=O)O)c2OB1O [Compound 6, (R)-2-hydroxy-3-ureido-3,4-dihydro-2H-benzo[e][1,2]oxaborinine-8-carboxylic acid] | Y (Y = MIC of 1 μg/mL to 10 μg/mL)
9 | O=C(CSc1nncs1)N[C@H]1Cc2cccc(C(=O)O)c2OB1O [Compound 7, (R)-3-(2-(1,3,4-thiadiazol-2-ylthio)acetamido)-2-hydroxy-3,4-dihydro-2H-benzo[e][1,2]oxaborinine-8-carboxylic acid] | X (X = MIC of less than 1 μg/mL)
10 | [N-]=[N+]=NCC(=O)N[C@H]1Cc2cccc(C(=O)O)c2OB1O [Compound 8, (R)-3-(2-azidoacetamido)-2-hydroxy-3,4-dihydro-2H-benzo[e][1,2]oxaborinine-8-carboxylic acid] | X (X = MIC of less than 1 μg/mL)
11 | CN(C)C(=O)C(=O)N[C@H]1Cc2cccc(C(=O)O)c2OB1O [Compound 9, (R)-3-(2-(dimethylamino)-2-oxoacetamido)-2-hydroxy-3,4-dihydro-2H-benzo[e][1,2]oxaborinine-8-carboxylic acid] | Y (Y = MIC of 1 μg/mL to 10 μg/mL)
12 | CN(C)C(=O)CC(=O)N[C@H]1Cc2cccc(C(=O)O)c2OB1O [Compound 10, (R)-3-(3-(dimethylamino)-3-oxopropanamido)-2-hydroxy-3,4-dihydro-2H-benzo[e][1,2]oxaborinine-8-carboxylic acid] | X (X = MIC of less than 1 μg/mL)
13 | CSC(=O)N[C@H]1Cc2cccc(C(=O)O)c2OB1O [Compound 11, (R)-2-hydroxy-3-(methylthiocarbonylamino)-3,4-dihydro-2H-benzo[e][1,2]oxaborinine-8-carboxylic acid] | X (X = MIC of less than 1 μg/mL)
14 | O=C(N[C@H]1Cc2cccc(C(=O)O)c2OB1O)c1cccnc1 [Compound 12, (R)-2-hydroxy-3-(nicotinamido)-3,4-dihydro-2H-benzo[e][1,2]oxaborinine-8-carboxylic acid] | X (X = MIC of less than 1 μg/mL)
15 | CSCC(=O)N[C@H]1Cc2cccc(C(=O)O)c2OB1O [Compound 13, (R)-2-hydroxy-3-(2-(methylthio)acetamido)-3,4-dihydro-2H-benzo[e][1,2]oxaborinine-8-carboxylic acid] | X (X = MIC of less than 1 μg/mL)
16 | O=C(N[C@H]1Cc2cccc(C(=O)O)c2OB1O)c1cncc(F)c1 [Compound 14, (R)-3-(5-fluoronicotinamido)-2-hydroxy-3,4-dihydro-2H-benzo[e][1,2]oxaborinine-8-carboxylic acid] | X (X = MIC of less than 1 μg/mL)
17 | O=C(N[C@H]1Cc2cccc(C(=O)O)c2OB1O)c1cncs1 [Compound 15, (R)-2-hydroxy-3-(thiazole-5-carboxamido)-3,4-dihydro-2H-benzo[e][1,2]oxaborinine-8-carboxylic acid] | X (X = MIC of less than 1 μg/mL)
18 | NC(=O)CC(=O)N[C@H]1Cc2cccc(C(=O)O)c2OB1O [Compound 16, (R)-3-(3-amino-3-oxopropanamido)-2-hydroxy-3,4-dihydro-2H-benzo[e][1,2]oxaborinine-8-carboxylic acid] | X (X = MIC of less than 1 μg/mL)
19 | NC(=O)C(=O)N[C@H]1Cc2cccc(C(=O)O)c2OB1O [Compound 17, (R)-3-(2-amino-2-oxoacetamido)-2-hydroxy-3,4-dihydro-2H-benzo[e][1,2]oxaborinine-8-carboxylic acid] | Y (Y = MIC of 1 μg/mL to 10 μg/mL)
20 | O=C(N[C@H]1Cc2cccc(C(=O)O)c2OB1O)c1cncnc1 [Compound 18, (R)-2-hydroxy-3-(pyrimidine-5-carboxamido)-3,4-dihydro-2H-benzo[e][1,2]oxaborinine-8-carboxylic acid] | X (X = MIC of less than 1 μg/mL)
21 | Nc1nnc(C(=O)N[C@H]2Cc3cccc(C(=O)O)c3OB2O)s1 [Compound 19, (R)-3-(5-amino-1,3,4-thiadiazole-2-carboxamido)-2-hydroxy-3,4-dihydro-2H-benzo[e][1,2]oxaborinine-8-carboxylic acid] | X (X = MIC of less than 1 μg/mL)
